Assay results from ChEMBL document CHEMBL1142302, “Discovery of subnanomolar arginine-glycine-aspartate-based alphaVbeta3/alphaVbeta5 integrin binders embedding 4-aminoproline residues” (J Med Chem, 2008).

By UniProt entry, the sequences of proteins in these tests, tags left out. Where a name states a change or a piece, a line headed by the entry shows the natural chain unless it says otherwise.
UniProt P05106: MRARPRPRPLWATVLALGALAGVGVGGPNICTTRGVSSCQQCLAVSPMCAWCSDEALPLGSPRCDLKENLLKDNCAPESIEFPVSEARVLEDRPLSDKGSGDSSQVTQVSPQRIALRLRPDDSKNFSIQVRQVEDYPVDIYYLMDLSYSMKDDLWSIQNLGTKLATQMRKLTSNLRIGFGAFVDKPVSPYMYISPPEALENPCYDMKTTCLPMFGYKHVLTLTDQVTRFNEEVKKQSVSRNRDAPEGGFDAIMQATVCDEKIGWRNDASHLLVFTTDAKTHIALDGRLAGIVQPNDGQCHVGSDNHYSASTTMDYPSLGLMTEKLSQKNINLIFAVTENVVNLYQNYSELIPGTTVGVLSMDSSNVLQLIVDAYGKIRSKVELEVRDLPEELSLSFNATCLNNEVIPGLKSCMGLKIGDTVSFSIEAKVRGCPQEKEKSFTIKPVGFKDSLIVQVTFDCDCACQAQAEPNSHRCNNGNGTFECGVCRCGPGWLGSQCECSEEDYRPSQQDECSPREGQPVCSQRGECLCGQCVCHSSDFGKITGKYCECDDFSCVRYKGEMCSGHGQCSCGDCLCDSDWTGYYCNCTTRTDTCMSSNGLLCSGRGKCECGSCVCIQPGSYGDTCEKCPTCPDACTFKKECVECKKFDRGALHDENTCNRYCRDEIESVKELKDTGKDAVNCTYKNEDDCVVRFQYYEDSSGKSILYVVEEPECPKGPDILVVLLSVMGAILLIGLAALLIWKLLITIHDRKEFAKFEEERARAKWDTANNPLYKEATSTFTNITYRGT
UniProt P06756: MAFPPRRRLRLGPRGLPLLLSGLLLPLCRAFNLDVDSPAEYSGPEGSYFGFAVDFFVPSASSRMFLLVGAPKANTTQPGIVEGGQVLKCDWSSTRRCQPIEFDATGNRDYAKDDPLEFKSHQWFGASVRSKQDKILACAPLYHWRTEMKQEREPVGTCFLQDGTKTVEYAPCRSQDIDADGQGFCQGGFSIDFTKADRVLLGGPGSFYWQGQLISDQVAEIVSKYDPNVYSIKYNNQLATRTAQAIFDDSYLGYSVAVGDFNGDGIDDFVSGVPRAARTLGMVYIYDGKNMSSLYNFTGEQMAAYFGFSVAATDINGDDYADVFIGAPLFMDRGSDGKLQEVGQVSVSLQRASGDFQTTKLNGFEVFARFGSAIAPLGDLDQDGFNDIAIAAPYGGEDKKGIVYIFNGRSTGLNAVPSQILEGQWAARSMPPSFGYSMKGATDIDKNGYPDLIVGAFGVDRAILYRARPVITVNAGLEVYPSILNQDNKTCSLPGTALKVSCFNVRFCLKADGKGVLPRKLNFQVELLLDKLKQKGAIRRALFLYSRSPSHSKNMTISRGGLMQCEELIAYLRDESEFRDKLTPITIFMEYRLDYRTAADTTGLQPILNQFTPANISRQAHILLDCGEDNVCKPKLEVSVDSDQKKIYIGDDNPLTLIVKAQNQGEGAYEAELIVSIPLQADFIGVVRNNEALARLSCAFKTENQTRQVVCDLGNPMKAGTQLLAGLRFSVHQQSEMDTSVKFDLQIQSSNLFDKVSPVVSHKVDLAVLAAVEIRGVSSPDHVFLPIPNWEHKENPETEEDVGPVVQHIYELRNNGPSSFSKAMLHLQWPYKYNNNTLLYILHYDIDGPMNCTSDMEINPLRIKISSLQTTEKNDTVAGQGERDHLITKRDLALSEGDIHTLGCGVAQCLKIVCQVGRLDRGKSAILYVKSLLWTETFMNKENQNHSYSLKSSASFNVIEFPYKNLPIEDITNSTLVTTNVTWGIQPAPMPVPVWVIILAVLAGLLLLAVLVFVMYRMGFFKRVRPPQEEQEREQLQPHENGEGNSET

What was measured:
Integrin alpha-V/beta-3 [1] = biological target: T1, Integrin alpha-V/beta-3 (Homo sapiens, UniProt P05106+P06756); assay: Displacement of [125I]echistatin from human integrin alpha-V-beta-3 receptor low affinity state by solid phase assay relative to control; type: protein-complex assay; set-up: concentration or dose not given beside the values; conditions: concentration not given here
Procedure, shortened: (§1)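 Competition for [125I]-echistatin specific binding to purified human αvβ3 or αvβ5 integrin protein. Inhibition was plotted against test compound concentration. Each point is the mean ± SEM of triplicate determinations.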

Integrin alpha-V/beta-3 [2] = biological target: T1, Integrin alpha-V/beta-3; assay: Displacement of [125I]echistatin from human integrin alpha-V-beta-3 receptor high affinity state by solid phase assay relative to control; type: protein-complex assay; set-up: concentration or dose not given beside the values; conditions: concentration not given here; procedure, shortened: as §1

inhibition (Integrin alpha-V/beta-3 [1]): 82%
inhibition (Integrin alpha-V/beta-3 [2]): 18%
Structure (SMILES): N=C1NCCC[C@@H](C(=O)O)NC(=O)CNC(=O)[C@@H](N)CC(=O)N[C@@H]2CN[C@H](C2)C(=O)N1
